Values quoted from earlier work as cited in patent US6916852B2, “Method for regulation of microvascular tone” (University of Tennessee Research Foundation, priority 2003, dated 2005).

System: cannabinoid receptors
Conditions: in vivo; cited from earlier work

## Cc1c(C(=O)NN2CCCCC2)nn(-c2ccc(Cl)cc2Cl)c1-c1ccc(Cl)cc1 [SR141716A]
  effect on blood pressure (Kunos, U.S. Pat. No. 5,939,429): prevents anandamide-induced hypotension
